Experiments:
5-HT6R [1] = target: T1, 5-HT6R (Homo sapiens, UniProt P50406); settings: NG108-15 cells transiently expressing human 5-HT6R
5-HT6R [2] = target: T1, 5-HT6R; settings: NG108-15 cells, 1 μM, 24 h
[3] = Preliminary pharmacokinetics in male Wistar rats, plasma and brain; settings: rat

Sequences of proteins named here, by UniProt entry; tags and fusion partners are left off.
UniProt P50406, whole entry: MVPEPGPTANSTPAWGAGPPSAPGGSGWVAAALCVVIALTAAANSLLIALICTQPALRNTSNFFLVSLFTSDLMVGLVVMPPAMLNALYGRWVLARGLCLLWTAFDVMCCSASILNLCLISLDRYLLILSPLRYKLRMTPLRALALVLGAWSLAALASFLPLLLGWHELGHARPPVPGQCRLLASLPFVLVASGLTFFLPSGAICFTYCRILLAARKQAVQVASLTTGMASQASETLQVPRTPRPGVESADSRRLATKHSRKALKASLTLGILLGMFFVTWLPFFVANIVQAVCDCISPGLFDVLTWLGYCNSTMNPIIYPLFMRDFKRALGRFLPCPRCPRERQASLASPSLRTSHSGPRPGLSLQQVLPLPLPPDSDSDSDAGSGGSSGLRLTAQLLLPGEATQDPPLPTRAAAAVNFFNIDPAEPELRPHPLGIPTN

SMILES: O=S(=O)(c1ccccc1)c1cnc2c(N3CCNCC3)cccc2c1 [Intepirdine, reference compound]
- effect on basal cAMP levels (5-HT6R constitutive activity at Gs signaling) (5-HT6R [1]): inhibited basal cAMP production
- neurite length (5-HT6R constitutive activity at Cdk5 signaling) (5-HT6R [2]): inhibit the Cdk5-induced neurite growth

SMILES: Cl.Clc1cccc(Cn2ccc3c(N4CCNCC4)nc4ccccc4c32)c1 [PZ-1922, 1-(3-Chlorobenzyl)-4-(piperazin-1-yl)-1H-pyrrolo[3,2-c]quinoline Hydrochloride]
- adrenergic alfa1 % inhibition at 1 microM (adrenergic α1R): 1%
- C0 ([3]; male, Wistar, in vivo, iv, 3 mg/kg): 0.244 µg/mL
- C0 initial concentration ([3]; 3 mg/kg intravenous, brain): 293.6 ng/g

— publication PMC10641814 (Journal of Medicinal Chemistry, 2023)
